{
  "source": "patent US9340577B2",
  "about": "“HLA binding motifs and peptides and their uses” (priority 1992, dated 2016)",
  "key": {"A2.1 HLA molecules": {"target": "A2.1 HLA molecules (Homo sapiens, UniProt P04439, D140Y/D185E/D98H/E176V/E277Q/G131W/G231S/I119V/I121R/I166T/I218V/L300P/L318F/N151K/N90K/P208A/P217A/Q86G/Q94H/R138H/R169H/T345S)"}, "[1]": {"system": "B7-Like Supertype (B*0701, B*3501, B*5101, B*5301, B*5401)", "assay_type": "binding, human"}, "B*0702 (B*0701)": {"target": "B*0702 (B*0701) (Homo sapiens, UniProt P01889)", "assay_type": "binding", "conditions": "Table 25; given as whole numbers, no unit"}, "B*0701": {"target": "B*0701 (Homo sapiens, UniProt P01889)", "experiment": "biochemical"}, "B*5401": {"target": "B*5401 (Homo sapiens, UniProt P01889, A329T/C349S/D138N/D201E/E176V/E187T/E204Q/E69G/I76V/K202T/L119W/R155S/R180L/S121T/S35A/S48A/V127L/V306I/V36M/Y140L)", "experiment": "biochemical"}},
  "note": "Where “and” joins values, the source holds several entries; their conditions need not be identical. Identical values can stand only once.",
  "data": [
    {"molecule": "LVFGIELMEV", "values": [
      {"measurement": "A2", "setting": "A2.1 HLA molecules", "result": 0.1100},
      {"measurement": "A2 Bind.", "setting": "A2.1 HLA molecules", "result": 0.1100}
    ]},
    {"molecule": "CC[C@H](C)[C@H](NC(=O)[C@H](Cc1ccc(O)cc1)NC(=O)[C@H](CC(C)C)NC(=O)[C@H](Cc1c[nH]cn1)NC(=O)[C@H](CO)NC(=O)[C@@H](NC(=O)[C@@H]1CCCN1C(=O)[C@@H](N)C(C)C)[C@@H](C)CC)C(=O)N[C@@H](CC(C)C)C(=O)O", "values": [
      {"measurement": "x-rxn", "setting": "[1]", "result": 4}
    ]},
    {"molecule": "C[C@H](NC(=O)[C@H](C)NC(=O)[C@H](Cc1ccc(O)cc1)NC(=O)[C@H](CCCCN)NC(=O)[C@H](Cc1ccccc1)NC(=O)[C@@H]1CCCN1C(=O)[C@@H](N)Cc1ccccc1)C(=O)N[C@@H](C)C(=O)N[C@@H](Cc1ccccc1)C(=O)O", "values": [
      {"measurement": "B*0701 binding", "setting": "B*0702 (B*0701)", "result": 0}
    ]},
    {"molecule": "CC[C@H](C)[C@H](NC(=O)[C@@H](NC(=O)[C@H](CC(C)C)NC(=O)[C@H](CC(C)C)NC(=O)CNC(=O)[C@H](C)NC(=O)[C@@H](NC(=O)[C@@H]1CCCN1C(=O)[C@@H](N)CCSC)C(C)C)[C@@H](C)CC)C(=O)O", "values": [
      {"measurement": "IC50", "setting": "B*0701", "result": 86, "unit": "nM"}
    ]},
    {"molecule": "YSFLPSDFFPSV", "values": [
      {"measurement": "A2 Bind.", "setting": "A2.1 HLA molecules", "result": 0.0190}
    ]},
    {"molecule": "FLLTRILTI", "values": [
      {"measurement": "A2 Bind.", "setting": "A2.1 HLA molecules", "result": "0.6300 and 0.9300"}
    ]},
    {"molecule": "CC[C@H](C)[C@H](NC(=O)[C@H](Cc1ccc(O)cc1)NC(=O)[C@H](CC(C)C)NC(=O)[C@H](CCSC)NC(=O)[C@H](CO)NC(=O)[C@@H](NC(=O)[C@@H]1CCCN1C(=O)[C@@H](N)C(C)C)[C@@H](C)CC)C(=O)N[C@@H](CC(C)C)C(=O)O", "values": [
      {"measurement": "IC50", "setting": "B*5401", "result": 1490, "unit": "nM"},
      {"measurement": "IC50", "setting": "B*0701", "result": 164, "unit": "nM"}
    ]}
  ]
}
